{
  "sequences": {"note": "Amino acid sequences for entries named in this document (tags omitted).", "UniProt P35372, whole entry, looked up": "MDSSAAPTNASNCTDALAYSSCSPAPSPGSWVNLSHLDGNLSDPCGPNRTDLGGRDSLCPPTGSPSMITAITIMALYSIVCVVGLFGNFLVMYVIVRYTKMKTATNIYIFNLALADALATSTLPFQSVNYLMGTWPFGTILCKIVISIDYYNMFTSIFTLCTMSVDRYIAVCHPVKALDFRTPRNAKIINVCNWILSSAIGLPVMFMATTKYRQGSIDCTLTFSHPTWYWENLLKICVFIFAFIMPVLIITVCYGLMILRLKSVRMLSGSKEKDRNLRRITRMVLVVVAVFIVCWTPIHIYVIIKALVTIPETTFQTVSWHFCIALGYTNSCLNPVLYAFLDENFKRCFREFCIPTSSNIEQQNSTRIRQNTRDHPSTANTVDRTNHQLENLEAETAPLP", "UniProt P41143, whole entry, looked up": "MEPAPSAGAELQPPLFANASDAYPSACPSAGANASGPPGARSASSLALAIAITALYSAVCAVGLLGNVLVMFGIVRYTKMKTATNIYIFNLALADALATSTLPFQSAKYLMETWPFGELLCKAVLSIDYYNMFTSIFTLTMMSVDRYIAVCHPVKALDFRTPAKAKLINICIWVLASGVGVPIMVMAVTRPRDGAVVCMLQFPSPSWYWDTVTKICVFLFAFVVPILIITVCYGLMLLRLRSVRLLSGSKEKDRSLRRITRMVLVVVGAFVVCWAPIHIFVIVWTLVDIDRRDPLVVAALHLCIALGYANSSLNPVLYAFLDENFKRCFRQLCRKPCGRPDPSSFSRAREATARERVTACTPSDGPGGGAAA"},
  "source": "PubChem BioAssay AID504326",
  "about": "(The Scripps Research Institute Molecular Screening Center, 2011)",
  "note": "The list shows a part of the results, in another mix than the full data. Active and inactive are the calls of the source. Cut-off read from the data, not from the text of the source: active = activation above about 18%; inactive = the rest.",
  "data": [
    {"molecular_target": "Mu-type opioid receptor (Homo sapiens) + Delta-type opioid receptor (Homo sapiens) (UniProt P35372+P41143)", "test": "inducers of mu-delta opioid receptor heterodimers – cell-based, luminescence, primary screen (AID 504326);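 note: 0% = vehicle-treated cells and 100% = reference agonist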", "conditions": "cells, OPRM1-OPRD1 heterodimerization, at 9.3 µM, active compounds read high", "values": [
      {"smiles": "O=C(O)CCc1nn2c3ccccc3n(CCN3CCCCC3)c2nc1=O", "activation": "inactive: 1.17%"},
      {"smiles": "Cc1cnc(NC(=O)Cn2cnc3c2c(=O)n(C)c(=O)n3C)s1", "activation": "inactive: -2.81%"},
      {"smiles": "Cc1ccc(Cn2nnnc2CN2CCC(n3nnc4cc(C(F)(F)F)ccc43)CC2)cc1", "activation": "inactive: 8.2%"},
      {"smiles": "Cc1ccc(-c2csc(NCCn3c(-c4ccncc4)nc4cc(C(F)(F)F)ccc43)n2)cc1", "activation": "inactive: -2.15%"},
      {"smiles": "Nc1nonc1-c1nc2ccccc2n1CC(=O)NC1CCCC1", "activation": "inactive: -1.96%"},
      {"smiles": "CC(C)(C)NC(=O)Cn1c(SCC(=O)NC2CC2)nc2ccccc21", "activation": "inactive: -2.88%"},
      {"smiles": "CSc1nc(N)nc2c1ncn2CC(=O)NCc1ccc2c(c1)OCO2", "activation": "inactive: -3.62%"},
      {"smiles": "COc1ccc(N/C(=N/P(=O)(N2CCOCC2)N2CCOCC2)N2CCOCC2)cc1", "activation": "inactive: -3.2%"},
      {"smiles": "CN(C)C(=O)Cn1c(SCC(=O)NCc2ccc3c(c2)OCO3)nc2ccccc21", "activation": "inactive: -1.12%"},
      {"smiles": "CCN(CC)S(=O)(=O)c1ccc(OC)c(NC(=O)Cn2cnc3c2c(=O)n(C)c(=O)n3C)c1", "activation": "inactive: -2.92%"},
      {"smiles": "O=C(Cn1cnc2c(OCc3ccccc3)ncnc21)NCc1ccccn1", "activation": "inactive: -0.85%"},
      {"smiles": "Cn1c(=O)c2ncn(CC(=O)Nc3cccc(-c4nc5ccccc5s4)c3)c2n(C)c1=O", "activation": "inactive: -0.96%"},
      {"smiles": "c1ccc2c(c1)nc1n2CCN1CCNC1CCCCC1", "activation": "inactive: -3.99%"},
      {"smiles": "COc1cc(NC(=O)Cn2cnc3c(NCc4ccccc4)ncnc32)cc(OC)c1OC", "activation": "inactive: -2.25%"},
      {"smiles": "Cc1cc2ncn(C3CC(=O)N(Cc4ccccc4)C3=O)c2cc1C", "note": "(centres undefined)", "activation": "inactive: 1.61%"},
      {"smiles": "O=[N+]([O-])c1cc(Oc2ccc([N+](=O)[O-])cc2C(F)(F)F)cc([N+](=O)[O-])c1", "activation": "active: 18.9%"},
      {"smiles": "CN(c1ccccc1)S(=O)(=O)c1cccc(NC(=O)Cn2cnc3c2c(=O)n(C)c(=O)n3C)c1", "activation": "inactive: 0.01%"},
      {"smiles": "CN(C)CCn1c(=N)n(CC(O)c2ccc(Cl)c(Cl)c2)c2ccccc21", "note": "(centres undefined)", "activation": "inactive: 6.41%"},
      {"smiles": "Cc1ccc(CNC(=O)Cn2cnc3c(OCc4ccccc4)ncnc32)o1", "activation": "inactive: -2.99%"},
      {"smiles": "COc1cc(NC(=O)[C@@H](NC(=O)N2CCn3c2nc2ccccc23)C(C)C)cc(OC)c1", "activation": "inactive: -2.83%"},
      {"smiles": "Nc1nonc1-c1nc2ccccc2n1CC(=O)N1CCN(c2ccc(F)cc2)CC1", "activation": "inactive: 4.56%"},
      {"smiles": "Cn1c(=O)[nH]c(=O)c2c1nc(CN1CCN(c3ccc(F)cc3)CC1)n2CCN1CCOCC1", "activation": "inactive: -2.57%"},
      {"smiles": "COc1ccc2nc(NP(=O)(c3ccccc3)c3ccccc3)sc2c1", "activation": "inactive: -2.82%"},
      {"smiles": "CCCn1c(=O)[nH]c(=O)c2c1nc(-c1ccc3c(c1)OCCO3)n2CCN1CCOCC1", "activation": "inactive: -0.27%"},
      {"smiles": "Cc1ccc(/C=N/NC(=O)Cn2cnc3ccccc32)o1", "activation": "inactive: -1.37%"},
      {"smiles": "CC(C)N(C(=O)Cn1c(-c2ccccc2Cl)nc2ccccc21)c1ccccc1", "activation": "inactive: -1.62%"},
      {"smiles": "Cn1c(=O)[nH]c(=O)c2c1nc(N1CCCCCC1)n2CCN1CCCCCC1", "activation": "inactive: 1.91%"},
      {"smiles": "CCOC(=O)c1cccc(NC(=O)Cn2c(CC(=O)NC)nc3ccccc32)c1", "activation": "inactive: 0.65%"},
      {"smiles": "Cc1ccc(NC(=O)Cn2cnc3c(OCc4ccccc4)ncnc32)cc1C", "activation": "inactive: 1.26%"},
      {"smiles": "CSCC[C@H](NC(=O)N1CCn2c1nc1ccccc12)C(=O)NCc1ccccc1", "activation": "inactive: -3.17%"},
      {"smiles": "C(=N\\c1nc2ccccc2n1CCN1CCCCC1)/c1cccs1", "activation": "inactive: -1.08%"},
      {"smiles": "COc1cc(I)ccc1[As](=O)(O)O", "activation": "inactive: -0.02%"},
      {"smiles": "c1ccc(CN2CCC(Nc3nc(-c4ccccc4)nc4ccccc34)CC2)cc1", "activation": "inactive: 7.49%"},
      {"smiles": "CC(O)CNc1nc2ccccc2n1CC(=O)N1CCN(Cc2ccccc2)CC1", "note": "(centres undefined)", "activation": "inactive: 0.47%"},
      {"smiles": "CCCCNc1nc2ccccc2n1CC(=O)Nc1c(C)cccc1CC", "activation": "inactive: -0.93%"},
      {"smiles": "COc1cccc(NC(=O)[C@@H](NC(=O)N2CCn3c2nc2ccccc23)C(C)C)c1", "activation": "inactive: -0.35%"},
      {"smiles": "O=P1(N(CCCl)CCCl)OCCCN1CCCl", "note": "(centres undefined)", "activation": "inactive: -1.52%"},
      {"smiles": "O=P1(N(CCCl)CCCl)Nc2ccccc2N1", "activation": "inactive: -2.49%"},
      {"smiles": "COc1ccc(CNC(=O)CCNC(=O)N2CCn3c2nc2ccccc23)cc1", "activation": "inactive: -2.62%"},
      {"smiles": "Cc1cc2ncn(C3CC(=O)N(C)C3=O)c2cc1C", "note": "(centres undefined)", "activation": "inactive: -2.48%"},
      {"smiles": "C=CCSc1nnc(NC(=O)Cn2cnc3c2c(=O)n(C)c(=O)n3C)s1", "activation": "inactive: 0.37%"},
      {"smiles": "Cc1ccc2c(c1)C1CN(C)CCC1N2C(=S)Nc1ccc(Cl)cc1Cl", "note": "(centres undefined)", "activation": "inactive: -1.62%"},
      {"smiles": "CSc1nc(N)nc2c1ncn2CC(=O)NCCCN1CCCC1=O", "activation": "inactive: -3.72%"},
      {"smiles": "Cn1c(=O)c2c(nc(NCc3ccccc3)n2CC(N)=O)n(C)c1=O", "activation": "inactive: -2.09%"},
      {"smiles": "O=C1C2CCCCC2C(=O)N1c1ccc(NC2CCN(Cc3ccccc3)CC2)c([N+](=O)[O-])c1", "note": "(centres undefined)", "activation": "inactive: -1.08%"},
      {"smiles": "O=C(OC1CN2CCC1CC2)C12CC3CC(CC(C3)C1)C2", "note": "(centres undefined)", "activation": "inactive: -2.86%"},
      {"smiles": "O=C(Cn1cnc2c(NCc3ccccc3)ncnc21)NCCCN1CCCC1=O", "activation": "inactive: -3.72%"},
      {"smiles": "CCn1cc(C(=O)N2CCn3c(nc4ccccc43)C2)c(=O)c2ccc(C)nc21", "activation": "inactive: -0.98%"},
      {"smiles": "Cn1c(=O)c2c(nc(Cl)n2CC(=O)N2CCCCC2)n(C)c1=O", "activation": "inactive: -2.44%"},
      {"smiles": "Cc1cc(=O)[nH]c(N[N+](=O)[O-])n1", "activation": "inactive: 0.49%"},
      {"smiles": "c1ccc2c(c1)ncn2CCN1CCCCC1", "activation": "inactive: 0.3%"},
      {"smiles": "Cn1c(=O)c2c(ncn2CC(=O)Nc2nccs2)n(C)c1=O", "activation": "inactive: -2.28%"},
      {"smiles": "Cc1ccccc1Oc1ccc2c(c1)[C@@H]1C[C@H](N(C)C(=O)c3ccc(C#N)cc3)[C@H]([C@H](C)O)C(=O)N1CC2", "activation": "inactive: -0.9%"},
      {"smiles": "NC(=O)CC(NC(=O)Cc1ccc(Br)cc1)c1ccc(NC2CCN(Cc3ccccc3)CC2)c([N+](=O)[O-])c1", "note": "(centres undefined)", "activation": "inactive: 0.34%"},
      {"smiles": "O=C(Cn1cnc2ccccc21)NC(c1ccccc1)c1ccccc1", "activation": "inactive: -1.19%"},
      {"smiles": "NC(=O)CS(=O)(=O)c1nc2ccccc2n1CC(=O)N1CCCCC1", "activation": "inactive: -0.84%"},
      {"smiles": "Cc1ccc(S(=O)(=O)N2CCCCC2)cc1NC(=O)Cn1cnc2c1c(=O)n(C)c(=O)n2C", "activation": "inactive: -1.88%"},
      {"smiles": "O=C(CCCCCNC(=O)N1CCn2c1nc1ccccc12)N[C@@H](C(=O)O)c1ccccc1", "activation": "inactive: -3.96%"},
      {"smiles": "Cc1c2c(nc3ccccc13)SC(C(Cl)Cl)C2", "note": "(centres undefined)", "activation": "inactive: 2.85%"},
      {"smiles": "Cc1ccc(NC(=O)Cn2cnc3c(=O)n(C)c(=O)n(C)c32)c(C)c1", "activation": "inactive: 0.04%"},
      {"smiles": "CCC(=O)Nc1cccc(C(=O)/C=C/c2ccc(F)cc2)c1", "activation": "inactive: -0.86%"},
      {"smiles": "Cc1ccc(Cn2nnnc2CN2CCC(n3nnc4cc(C)ccc43)CC2)cc1", "activation": "inactive: 4.87%"},
      {"smiles": "Cc1cccc(CSc2nc3ccncc3n2CC(=O)Nc2cc(C)cc(C)c2)c1", "activation": "inactive: -0.4%"},
      {"smiles": "Cn1c(=O)c2c(nc(CN3CCC(Cc4ccccc4)CC3)n2CCN2CCOCC2)n(C)c1=O", "activation": "inactive: -0.15%"},
      {"smiles": "CC1CCN(C(=O)Cn2cnc3c2c(=O)n(C)c(=O)n3C)c2ccccc2S1", "note": "(centres undefined)", "activation": "inactive: -1.25%"},
      {"smiles": "C[C@H](NC(=O)N1CCn2c1nc1ccccc12)C(=O)NC1CC1", "activation": "inactive: -1.08%"},
      {"smiles": "O=C(Cn1c(C(F)(F)F)nc2ccccc21)N1CCCC1", "activation": "inactive: -1.54%"},
      {"smiles": "Cc1ccc(-c2csc(NCCn3c(C)nc4cc(C(F)(F)F)ccc43)n2)cc1", "activation": "inactive: 0.04%"},
      {"smiles": "COc1cc(NC(=O)Cn2cnc3c(OCc4ccccc4)ncnc32)cc(OC)c1OC", "activation": "inactive: -0.63%"},
      {"smiles": "O=C(CCNC(=O)N1CCn2c1nc1ccccc12)NCc1ccc(F)cc1", "activation": "inactive: -1.06%"},
      {"smiles": "O=C(OC1CN2CCC1CC2)c1cccc2[nH]cnc12", "note": "(centres undefined)", "activation": "inactive: -1.4%"},
      {"smiles": "C=C(C)Cn1c(=O)c2c(nc3n2CCN3c2cccc(Cl)c2C)n(C)c1=O", "activation": "inactive: -0.95%"},
      {"smiles": "CCN(CC)C(=S)SC(NC=O)C(Cl)(Cl)Cl", "note": "(centres undefined)", "activation": "inactive: 1.09%"},
      {"smiles": "O=C(Nc1nc2ccccc2n1CCN1CCOCC1)c1cn(-c2ccccc2)nc1-c1ccccc1", "activation": "inactive: -1.87%"},
      {"smiles": "O=C(Cn1c2[n+](c3ccc(C(F)(F)F)cc31)CCCCC2)Nc1c(F)cccc1F", "activation": "inactive: 1.53%"},
      {"smiles": "COC(=O)[C@H](CC(C)C)NC(=O)Cn1cnc2c(SC)nc(N)nc21", "activation": "inactive: -2.2%"},
      {"smiles": "Cn1c(=O)c2c(ncn2CC(=O)Nc2nc(-c3ccccc3Cl)cs2)n(C)c1=O", "activation": "inactive: 1.28%"},
      {"smiles": "CC1c2nc3ccccc3n2C(CC(=O)NCCCN2CCOCC2)C(=O)N1Cc1ccccc1", "note": "(centres undefined)", "activation": "inactive: -1.72%"},
      {"smiles": "COc1ccc(CCNC(=O)[C@@H](NC(=O)N2CCn3c2nc2ccccc23)C(C)C)cc1OC", "activation": "inactive: -1.03%"},
      {"smiles": "O=C(Cn1c(-c2ccccn2)nc2ccccc21)NCCN1CCOCC1", "activation": "inactive: 0.21%"},
      {"smiles": "O=[N+]([O-])c1cc([N+](=O)[O-])c(-c2ccn[nH]2)s1", "activation": "inactive: 7.33%"},
      {"smiles": "O=C(Cn1cnc2c(NCc3ccccc3)ncnc21)NCCCc1ccccc1", "activation": "inactive: -2.46%"},
      {"smiles": "Cc1nc2ccccc2n1C1CCN(Cc2nnnn2CCc2ccccc2)CC1", "activation": "inactive: 0.21%"},
      {"smiles": "Oc1ccccc1CNc1nc2ccccc2n1CCN1CCCCC1", "activation": "inactive: 0.36%"},
      {"smiles": "COC(=O)C1(C)COP(=O)(N2CCCCCC2)OC1", "note": "(centres undefined)", "activation": "inactive: -0.18%"},
      {"smiles": "CCC(C(=O)NC1CCCCC1)n1c(SCc2ccccc2F)nc2ccncc21", "note": "(centres undefined)", "activation": "inactive: -1.94%"},
      {"smiles": "COC(=O)c1ccc(CNC(=O)Cn2cnc3c(SC)nc(N)nc32)cc1", "activation": "inactive: -4.07%"},
      {"smiles": "CC(C)c1ccc(OP(=O)(Nc2ccccn2)Oc2ccccc2F)cc1", "note": "(centres undefined)", "activation": "inactive: 0.57%"},
      {"smiles": "c1csc(CNc2nc3ccccc3n2CCN2CCOCC2)c1", "activation": "inactive: -2.78%"}
    ]}
  ]
}
